Measured values published in US20180086779A1, “TOCOPHEROL PHOSPHORIC ACID ESTER SALT, METHOD FOR MANUFACTURING THE SAME, AND SKIN EXTERNAL PREPARATION” (priority 2015, published 2018).

Conditions: relative to the salt with a = 1.10

## sodium salt of a α-tocopherol phosphoric acid ester
  required time for dissolving it in water as compared to the case in which a is 1.10: one third
